# Measurements published in article PMC11767661 (Molecules, 2025).
# What was measured:
# [1] = Peptide hydrolysis in Hepes buffer alone or with Cu2+/Zn2+, followed by HPLC-ESI/MS; type: physicochemical; details: for Remaining amount of Aβ16 and species detected by LC-MS (Table S1) / Remaining amount of Aβ28 and species detected by LC-MS (Table S2): 50 mM HEPES pH 7.4, 4 °C, LC-MS relative % area; for Fragment amount of Aβ16 detected by HPLC-MS (row Aβ16 = intact peptide): 50 mM Hepes pH 7.4, 37 °C, HPLC-ESI/MS relative % area
# Procedure: Herein, we analyzed the hydrolytic process of Aβ peptides in 50 mM Hepes buffer at 7.4 physiological pH over two weeks at two distinct temperatures, 4 °C and 37 °C, using mass spectrometry coupled with high-performance liquid chromatography (HPLC-MS) for precise analysis. Additionally, we explored the impact of copper(II) or zinc(II) ions, each added in a 1:1 molar ratio to the peptides, on the resulting hydrolytic fragmentation patterns. It is worth noting that metal binding only occurs at the N-terminal region of Aβ peptides, specifically interacting with histidine residues. The commonly accepted peptide sequence 1–16 (^1DAEFRHDSGYEVHHNK^16, Aβ16) is widely used as a model for this interaction due to its inclusion of all three histidines (His6, His13, and His14) known for their key roles in coordinating metal ions. Therefore, the initial studies were performed on this short peptide. Aβ16 has the further advantage of minimizing the aggregation processes that normally occur with longer Aβ peptides. In the latter case, the co-presence of hydrolytic and aggregation/precipitation pathways in the peptide mixtures could preclude the detection and the quantitative estimation of the fragmentation patterns. In this way, the hydrolytic products have been easily identified through b and y fragments in the MS/MS signals and quantified via their relative percentage areas in the LC-MS chromatograms.
# General. All chemicals were of reagent grade and purchased from Sigma-Aldrich. Preparative HPLC was carried out with a Shimadzu LC-20AD Prominence instrument equipped with a diode array detector. Mass spectra and LCMS/MS data were performed with an LCQ ADV MAX ion-trap mass spectrometer equipped with an ESI ion source. The instrument was run in an automated LC-MS/MS mode and using a surveyor HPLC system (Thermo Finnigan, San Jose, CA, USA) equipped with a Phenomenex Jupiter 4u Proteo column (4 μm, 150 × 2.0 mm). For the analysis of peptide fragments, Bioworks 3.1 and Xcalibur 2.0.7 SP1 software were used (Thermo Finnigan, San Jose, CA, USA).
# Peptide hydrolysis in the presence of metal ions. Solutions of Aβ16 and Aβ28 (500 µM) alone or with the addition of Cu(NO3)2 (1 eqv., 500 µM) or ZnCl2 (1 eqv., 500 µM) were prepared in 50 mM Hepes buffer at pH 7.4. The solutions were then incubated at 4 °C or 37 °C (only for Aβ16) in atmospheric air and every 7 days aliquots were taken, diluted to the 25 µM final concentration with Hepes buffer, and analyzed by HPLC-ESI/MS. The solution of R1τ, Ac-R1τ, αSyn15, and Ac-αSyn15 (25 µM) fragments were incubated in 50 mM Hepes buffer at 4 °C for 14 days; at the same time, solutions also containing copper(II) or zinc(II) in a 1:1 molar ratio respect to peptide were prepared. The elution was performed by using 0.1% HCOOH in distilled water (solvent A) and 0.1% HCOOH in acetonitrile (solvent B), with a flow rate of 0.2 mL/min. Elution started with 98% solvent A for 5 min, followed by a linear gradient from 98 to 55% A in 55 min. MS/MS experiments by collision-induced dissociation (CID) were performed with an isolation width of 2 Th (m/z); the activation amplitude was around 35% of the ejection radiofrequency (RF) amplitude of the instrument. For the analysis of peptide fragments, Bioworks 3.1 and Xcalibur 2.0.7 SP1 software were used (Thermo Finnigan, San Jose, CA, USA).
# [2] = 50 mM Hepes buffer at pH 7.4 with ZnCl2 (1 eqv., 500 µM)
# [3] = 50 mM Hepes buffer at pH 7.4 with Cu(NO3)2 (1 eqv., 500 µM); details: 37 °C, up to 21 Days
# [4] = HEPES buffer (50 mM) pH 7.4, Aβ16 alone; details: 4 °C, up to 21 days
# [5] = 50 mM Hepes buffer at pH 7.4, peptide alone; details: 37 °C, up to 14 Days
# [6] = HEPES buffer (50 mM) pH 7.4 with 500 µM zinc(II) chloride (Aβ16); details: 4 °C, up to 21 days
# [7] = HEPES buffer (50 mM) pH 7.4 with 500 µM copper(II) nitrate (Aβ16); details: 4 °C, up to 21 days
# [8] = Aβ28 500 µM + 500 µM copper(II) nitrate, 21 days
# [9] = Aβ28 500 µM + 500 µM zinc(II) chloride, 14 days
# [10] = Aβ28 500 µM + 500 µM zinc(II) chloride, 21 days
# [11] = Aβ16 500 µM + 500 µM copper(II) nitrate (1 equiv.), 7 days
# [12] = Aβ16 500 µM + 500 µM copper(II) nitrate (1 equiv.), 14 days
# [13] = Aβ16 500 µM + 500 µM copper(II) nitrate (1 equiv.), 21 days
# [14] = Aβ16 500 µM + 500 µM zinc(II) chloride (1 equiv.), 21 days
# [15] = hydrolytic stability, Aβ16 500 µM alone, atmospheric air, 14 days
# [16] = hydrolytic stability, Aβ16 500 µM alone, atmospheric air, 7 days, aliquot diluted to 25 µM
# [17] = Aβ16 500 µM + 500 µM zinc(II) chloride, 21 days
substance,measurement,setting,value
DAEFRHDSGYEVHHQ [hydrolytic fragment 1–15 of Aβ16 and Aβ28],Remaining amount of Aβ16 and species detected by LC-MS (Table S1),"[1]; Aβ16 500 µM alone, 21 days",3%
same,Remaining amount of Aβ28 and species detected by LC-MS (Table S2),"[1]; Aβ28 500 µM + 500 µM copper(II) nitrate, 14 days",1%
same,Remaining amount of Aβ28 and species detected by LC-MS (Table S2),[1]; [8],4%
same,Remaining amount of Aβ28 and species detected by LC-MS (Table S2),[1]; [9],12%
same,Remaining amount of Aβ28 and species detected by LC-MS (Table S2),[1]; [10],20%
same,Remaining amount of Aβ28 and species detected by LC-MS (Table S2),"[1]; Aβ28 500 µM alone, 14 days",17%
DAEFRHDSGYEV [hydrolytic fragment 1–12 of Aβ16],Fragment amount of Aβ16 detected by HPLC-MS (row Aβ16 = intact peptide),[1]; [11],2%
same,Fragment amount of Aβ16 detected by HPLC-MS (row Aβ16 = intact peptide),[1]; [12],7%
same,Fragment amount of Aβ16 detected by HPLC-MS (row Aβ16 = intact peptide),[1]; [13],13%
same,Fragment amount of Aβ16 detected by HPLC-MS (row Aβ16 = intact peptide),[1]; [14],5%
same,Fragment amount of Aβ16 detected by HPLC-MS (row Aβ16 = intact peptide),[1]; [15],2%
AEFRHDSGYEVHH [hydrolytic fragment 2–14 of Aβ16],Fragment amount of Aβ16 detected by HPLC-MS (row Aβ16 = intact peptide),[1]; [16],2%
same,Fragment amount of Aβ16 detected by HPLC-MS (row Aβ16 = intact peptide),[1]; [15],2%
DAEFRHDSGYEVH [hydrolytic fragment 1–13 of Aβ16 and Aβ28],Fragment amount of Aβ16 detected by HPLC-MS (row Aβ16 = intact peptide),[1]; [11],2%
same,Fragment amount of Aβ16 detected by HPLC-MS (row Aβ16 = intact peptide),[1]; [12],8%
same,Fragment amount of Aβ16 detected by HPLC-MS (row Aβ16 = intact peptide),[1]; [13],13%
same,Remaining amount of Aβ16 and species detected by LC-MS (Table S1),"[1]; Aβ16 500 µM + 500 µM copper(II) nitrate, 21 days",2%
same,Fragment amount of Aβ16 detected by HPLC-MS (row Aβ16 = intact peptide),"[1]; Aβ16 500 µM + 500 µM zinc(II) chloride (1 equiv.), 7 days",7%
same,Fragment amount of Aβ16 detected by HPLC-MS (row Aβ16 = intact peptide),"[1]; Aβ16 500 µM + 500 µM zinc(II) chloride (1 equiv.), 14 days",13%
same,Fragment amount of Aβ16 detected by HPLC-MS (row Aβ16 = intact peptide),[1]; [14],51%
same,Remaining amount of Aβ16 and species detected by LC-MS (Table S1),"[1]; Aβ16 500 µM + 500 µM zinc(II) chloride, 7 days",1%
same,Remaining amount of Aβ16 and species detected by LC-MS (Table S1),"[1]; Aβ16 500 µM + 500 µM zinc(II) chloride, 14 days",1%
same,Remaining amount of Aβ16 and species detected by LC-MS (Table S1),[1]; [17],3%
same,Remaining amount of Aβ16 and species detected by LC-MS (Table S1),"[1]; Aβ16 500 µM alone, 14 days",6%
same,Remaining amount of Aβ16 and species detected by LC-MS (Table S1),"[1]; Aβ16 500 µM alone, 21 days",3%
same,Remaining amount of Aβ28 and species detected by LC-MS (Table S2),[1]; [8],3%
same,Remaining amount of Aβ28 and species detected by LC-MS (Table S2),[1]; [9],2%
same,Remaining amount of Aβ28 and species detected by LC-MS (Table S2),[1]; [10],5%
same,Remaining amount of Aβ28 and species detected by LC-MS (Table S2),"[1]; Aβ28 500 µM alone, 14 days",3%
same,Fragment amount of Aβ16 detected by HPLC-MS (row Aβ16 = intact peptide),[1]; [16],17%
same,Fragment amount of Aβ16 detected by HPLC-MS (row Aβ16 = intact peptide),[1]; [15],19%
DAEFRHDSGYEVHH [hydrolytic fragment 1–14 of Aβ16],Fragment amount of Aβ16 detected by HPLC-MS (row Aβ16 = intact peptide),[1]; [11],2%
same,Fragment amount of Aβ16 detected by HPLC-MS (row Aβ16 = intact peptide),[1]; [13],2%
same,Remaining amount of Aβ16 and species detected by LC-MS (Table S1),[1]; [17],1%
same,Remaining amount of Aβ16 and species detected by LC-MS (Table S1),"[1]; Aβ16 500 µM alone, 14 days",2%
same,Remaining amount of Aβ16 and species detected by LC-MS (Table S1),"[1]; Aβ16 500 µM alone, 21 days",4%
same,Fragment amount of Aβ16 detected by HPLC-MS (row Aβ16 = intact peptide),[1]; [16],3%
same,Fragment amount of Aβ16 detected by HPLC-MS (row Aβ16 = intact peptide),[1]; [15],8%
DAEFRHDSGYEVHHNK-NH2,cleaved bond,"[2]; 4 °C, up to 21 days","H13-H14, 7 days"
^1DAEFRHDSGYEVHHNK^16-NH2,fragment found,[3],"FRHDSGYEVH (4–13), 7 Days; also recorded: DAEFRHDSGYEVHH (1–14), 7 Days; also recorded: DAEFRHDSGYE (1–11), 14 Days; also recorded: DAEFRHDSGYEVH (1–13), 7 Days; also recorded: DAEFRHDSGYEV (1–12), 7 Days"
same,cleaved bond,[4],"E11-V12, 14 days; also recorded: H13-H14, 14 days"
same,fragment found,"[2]; 37 °C, up to 21 Days","SGYEVH (8–13), 14 Days; also recorded: FRHDSGYEVH (4–13), 7 Days; also recorded: DAEFRHDSGYE (1–11), 21 Days; also recorded: DAEFRHDSGYEVH (1–13), 7 Days; also recorded: DAEFRHDSGYEV (1–12), 21 Days"
same,cleaved bond,[5],"His13-His14, 7 Days"
same,fragment found,[5],"DAEFRHD (1–7), 7 Days; also recorded: DAEFRHDSGYEV (1–12), 14 Days; also recorded: SGYEVH (8–13), 7 Days; also recorded: AEFRHDSGYE (2–11), 7 Days; also recorded: AEFRHDSGYEVHH (2–14), 7 Days"
same,cleaved bond,[6],"Y10-E11, 14 days; also recorded: H13-H14, 7 days"
same,cleaved bond,[7],"E11-V12, 21 days; also recorded: H13-H14, 21 days"
same,fragment found,[7],"pyruvate(D)-AEFRH…. 1*-16, 21 days"

# Entries after “also recorded” stand apart in the source; their conditions may differ.
